Values quoted from earlier work, collected in patent US8815261B2 (priority 2009, dated 2014).
Read-outs that look alike come from different tables or passages of the source.

O=C1CCc2ccc(OCCCCN3CCN(c4cccc(Cl)c4Cl)CC3)cc2N1 [aripiprazole (free form), 7-{4-[4-(2,3-dichlorophenyl)-1-piperazinyl]butoxy}-3,4-dihydrocarbostyryl, reference compound]
4.6: logP | logP calculated value of organic acid (PubChem value (revised on February, 2009)) | logP calculated value of organic acid (PubChem value, as in Example 2 (Table 4))
